Measurements as given in patent US20060199856A1, “Novel compounds as anti-inflammatory, immunomodulatory and anti-proliferatory agents” (4 SC AG, priority 2001, published 2006).

The chains behind the UniProt entries cited, without tags or fusion partners.
UniProt Q63707, whole entry: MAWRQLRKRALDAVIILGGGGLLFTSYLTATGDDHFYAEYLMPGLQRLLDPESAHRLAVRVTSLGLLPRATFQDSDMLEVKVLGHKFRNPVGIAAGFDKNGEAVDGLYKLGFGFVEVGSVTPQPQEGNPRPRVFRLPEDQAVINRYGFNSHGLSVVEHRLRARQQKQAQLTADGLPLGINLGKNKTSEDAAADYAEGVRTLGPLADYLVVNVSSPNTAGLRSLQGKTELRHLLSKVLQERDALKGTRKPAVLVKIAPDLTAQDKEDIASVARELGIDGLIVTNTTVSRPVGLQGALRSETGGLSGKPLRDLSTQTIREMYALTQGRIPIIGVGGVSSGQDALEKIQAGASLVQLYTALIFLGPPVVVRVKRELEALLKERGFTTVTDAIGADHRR

Target: DHODH (Rattus norvegicus, UniProt Q63707)
Test: Inhibition assay of DHODH activity (rat enzyme, head printed 'rate')
Type: biochemical
Details: read-out: rate IC50-Value; class symbols (in nM)

Compound: COc1ccccc1-c1cc(F)c(NC(=O)C2=C(C(=O)O)COC2)c(F)c1
- IC50: < 800 nM
